Reference: patent US11639373B2, “Therapeutic and diagnostic agents for cancer” (TECHNISCHE UNIVERSITÄT MÜNCHEN, priority 2018, dated 2023)
Where two headings read alike, the source gives them in different places.

Sequences of proteins named here, by UniProt entry; tags and fusion partners are left off.
UniProt P61073, whole entry: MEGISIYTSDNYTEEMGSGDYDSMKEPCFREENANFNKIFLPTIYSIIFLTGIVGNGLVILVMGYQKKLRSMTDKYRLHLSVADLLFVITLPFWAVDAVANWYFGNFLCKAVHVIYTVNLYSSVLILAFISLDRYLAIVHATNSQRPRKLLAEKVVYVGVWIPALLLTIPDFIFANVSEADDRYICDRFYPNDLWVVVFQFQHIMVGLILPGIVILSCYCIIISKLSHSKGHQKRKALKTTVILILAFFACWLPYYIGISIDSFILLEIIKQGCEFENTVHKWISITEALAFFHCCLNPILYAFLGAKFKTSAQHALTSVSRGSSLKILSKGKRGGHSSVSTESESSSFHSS
UniProt P70658, whole entry: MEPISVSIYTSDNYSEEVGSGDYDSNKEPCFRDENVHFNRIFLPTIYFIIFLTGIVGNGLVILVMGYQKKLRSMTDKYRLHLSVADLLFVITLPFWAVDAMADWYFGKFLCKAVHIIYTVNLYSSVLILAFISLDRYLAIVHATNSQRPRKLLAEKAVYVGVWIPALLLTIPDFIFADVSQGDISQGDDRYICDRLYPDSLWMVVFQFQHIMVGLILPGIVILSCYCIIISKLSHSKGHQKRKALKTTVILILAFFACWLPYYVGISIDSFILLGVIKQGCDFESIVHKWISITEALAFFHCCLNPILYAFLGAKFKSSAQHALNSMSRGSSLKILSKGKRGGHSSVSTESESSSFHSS

Assays:
human CXCR4 = molecular target: T1, human CXCR4 (Homo sapiens, UniProt P61073); test: Competitive binding assay to human CXCR4, Jurkat cells, [125I]FC131 radioligand
T1 construct: using CXCR4 positive Jurkat human T-cell leukemia cells; endogenous in cells; host or cells: Jurkat human T-cell leukemia cells

murine CXCR4 = molecular target: T2, murine CXCR4 (Mus musculus, UniProt P70658); test: Competitive binding assay to murine CXCR4, Eμ-Myc1080 cells, [125I]CPCR4.3 radioligand; conditions: Eμ-Myc1080 mouse B-cell lymphoma cells
T2 construct: The murine CXCR4 expressing cell line Ep-Myc1080; endogenous in cells; host or cells: Eμ-Myc1080 mouse B-cell lymphoma cells
Procedure: Competition studies addressing the human CXCR4 were performed using CXCR4 positive Jurkat human T-cell leukemia cells and ^125I-FC131 (^125I-2), addressing the murine CXCR4, Ep-Myc1080 mouse B-cell lymphoma cells and ^125I-CPCR4.3 (Demmer et al. A Conformationally Frozen Peptoid Boosts CXCR4 Affinity and Anti-HIV Activity. Angewandte Chemie International Edition. 2012; 51:8110-8113) as the radioligand were utilized as described previously (Poschenrieder et al., The influence of different metal-chelate conjugates of pentixafor on the CXCR4 affinity. EJNMMI research. 2016; 6:1-8).
The binding affinities (IC50) of the respective ^natLu and ^natGa derivatives towards the human and murine CXCR4 (Table 1a) were determined in a competitive binding assay using Jurkat human T-cell leukemia cells or Ep-Myc1080 mouse B-cell lymphoma cells (4.0 and 2.0*10^5 cells/well, 2 h, RT) and ^125I-2 or ^125I-CPCR4.3 (0.1 nM) as the radioligand. To be able to assess the effect of structural modifications in the SAR study on CXCR4 binding affinity, data for ^natGa-pentixafor (^natGa-3) and ^natLu-pentixather (^natLu-4) are also included in Table 1a.

Q: For `CN1C(=O)[C@@H](Cc2ccc(O)c(I)c2)NC(=O)CNC(=O)[C@H](Cc2ccc3ccccc3c2)NC(=O)[C@H](CCCNC(=N)N)NC(=O)[C@H]1CCCNC(=O)c1ccc(NC(=O)CNC(=O)[C@H](CCCNC(=N)N)n2cc(C[N+](C)(C)C[B-](F)(F)F)nn2)cc1` [F3, cyclo[i-yorn′(AMBF3(methyl(1H-1,2,3-triazol-4-yl)-rG-4-amino)benzoyl-)RNaIG]], which IC50 (human CXCR4; Table 1b, 18F-labeling precursors, [^125I]FC-131, read-out: IC50 [nM] to hCXCR4) is on record?
A: Its IC50 is 2.9 ± 0.9 nM.

Q: Which results are given for `CN1C(=O)[C@@H](Cc2ccc(O)c(I)c2)NC(=O)CNC(=O)[C@H](Cc2ccc3ccccc3c2)NC(=O)[C@H](CCCNC(=N)N)NC(=O)[C@H]1CCCNC(=O)c1ccc(NC(=O)CNC(=O)[C@H](CN)NC(=O)CN2CCN(CC(=O)O)CCN(CC(=O)O)CCN(CC(=O)O)CC2)cc1` [P2]?
A: IC50 (human CXCR4; Table 1b, ^natBi metal complexes, [^125I]FC-131, read-out: IC50 [nM] to hCXCR4 [^natBi]): 3.5 ± 0.4 nM; IC50 (human CXCR4; Table 1b, ^natLu metal complexes, [^125I]FC-131, read-out: IC50 [nM] to hCXCR4 [^natLu]): 3.5 ± 0.3 nM; IC50 (human CXCR4; ^natLu complexes, [^125I]FC131 0.1 nM, RT 2 h, mean ± SD (n = 3), read-out: IC50 [nM] for ^natLu-complexes and human CXCR4): 3.5 ± 0.3 nM

Q: Which results are given for `CN1C(=O)[C@@H](Cc2ccc(O)c(I)c2)NC(=O)CNC(=O)[C@H](Cc2ccc3ccccc3c2)NC(=O)[C@H](CCCNC(=N)N)NC(=O)C1CCCNC(=O)c1ccc(NC(=O)CNC(=O)[C@H](CCCCN)NC(=O)CN2CCN(CC(=O)O)CCN(CC(=O)O)CCN(CC(=O)O)CC2)cc1` (stereo partly drawn) [P3]?
A: IC50 (murine CXCR4; Table 1c, read-out: IC50 [nM] to mCXCR4): 37.1 ± 2.9 nM; IC50 (murine CXCR4; ^natLu complexes, mean ± SD (n = 3), 120 min, read-out: mIC50[nM] ^natLu complexes and murine CXCR4): 61.4 ± 17 nM
